Patent US20230117592A1 (SRI International, priority 2019, published 2023)

Molecular target: T1, 12-LOX (Homo sapiens, UniProt P18054)
T1 sequence (P18054 1-663): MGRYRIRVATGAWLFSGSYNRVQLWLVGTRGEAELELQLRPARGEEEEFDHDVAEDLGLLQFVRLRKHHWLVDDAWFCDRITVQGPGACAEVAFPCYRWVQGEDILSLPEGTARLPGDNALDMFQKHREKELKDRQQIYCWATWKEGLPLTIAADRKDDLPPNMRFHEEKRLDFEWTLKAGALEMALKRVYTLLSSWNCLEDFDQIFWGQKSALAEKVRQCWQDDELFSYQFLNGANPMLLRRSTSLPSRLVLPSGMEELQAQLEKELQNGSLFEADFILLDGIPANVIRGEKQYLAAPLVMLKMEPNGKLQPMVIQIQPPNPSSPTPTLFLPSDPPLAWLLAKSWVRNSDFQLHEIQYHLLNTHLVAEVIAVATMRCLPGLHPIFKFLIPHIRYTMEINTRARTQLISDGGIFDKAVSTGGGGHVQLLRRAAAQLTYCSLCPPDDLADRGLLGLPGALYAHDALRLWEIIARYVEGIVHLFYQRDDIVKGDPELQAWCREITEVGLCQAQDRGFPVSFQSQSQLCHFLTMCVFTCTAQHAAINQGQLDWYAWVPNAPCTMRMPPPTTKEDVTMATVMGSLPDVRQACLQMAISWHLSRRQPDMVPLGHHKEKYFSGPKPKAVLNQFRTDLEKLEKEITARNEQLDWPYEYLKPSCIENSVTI
Experiment: 12-LOX fluorescent assay (in vitro lipoxygenase inhibition)
Type: biochemical
Description: 12-LOX/15-LOX Fluorescent Assay
The enzyme assay (100 ul) contained 50 mM Tris, pH 7.5, 0.05% Tween-20, 20 μM AA/LA, 1 μM DHR123, and 100 nM recombinant 12-LOX enzyme/50 nM recombinant 15-LOX enzyme. Inhibitors (dissolved in DMSO) were plated at 1 μL into 96-well assay microplates followed by a 40 μL addition of a solution containing 12-LOX/15-LOX enzyme. Enzyme was pre-incubated with compounds for 15 mins. The assay was initiated by the addition of a 40 μL substrate solution containing AA/LA, and 20μL addition of a solution containing DHR123. Enzymatic reaction proceeded for 30 min with kinetic reading at 500 nm excitation & 536 nm emission in SpectraMax Paradigm (MolecularDevice). Percent inhibition was calculated for each compound dose for IC50 curve fitting using 4 Parameter Logistic Model or Sigmoidal Dose-Response Model.

SMILES: CN(CCn1cncn1)c1cc(Nc2ccccc2)ccc1-c1ccccc1 [SS20308-0131-01, N2-(2-(1H-1,2,4-triazol-1-yl)ethyl)-N2-methyl-N4-phenyl-[1,1′-biphenyl]-2,4-diamine]
- IC50: 190 nM
